# According to patent US12145911B2, “Inhibitors of cysteine proteases and methods of use thereof” (priority 2020, dated 2024):
# Target: COVID-19 (nCoV-2019, SARS-CoV2) Mpro (Severe acute respiratory syndrome coronavirus 2, UniProt P0DTD1)
# Assay: SARS-CoV2 Mpro enzymatic assay
# Assay type: biochemical
smiles,measurement,value
"COc1cccc2[nH]c(C(=O)N[C@H](CC3CC3)C(=O)N[C@H](C#N)C[C@@H]3CCC(C)(C)NC3=O)cc12 (single isomer, unassigned; isomer 1) [787A (Isomer 1)]",IC50,< 2000 nM
